Experimental findings from PubChem BioAssay AID720543 (The Scripps Research Institute Molecular Screening Center, 2013) are described below.

By UniProt entry, the sequences of proteins in these tests, tags left out. Where a name states a change or a piece, a line headed by the entry shows the natural chain unless it says otherwise.
UniProt Q8VD66: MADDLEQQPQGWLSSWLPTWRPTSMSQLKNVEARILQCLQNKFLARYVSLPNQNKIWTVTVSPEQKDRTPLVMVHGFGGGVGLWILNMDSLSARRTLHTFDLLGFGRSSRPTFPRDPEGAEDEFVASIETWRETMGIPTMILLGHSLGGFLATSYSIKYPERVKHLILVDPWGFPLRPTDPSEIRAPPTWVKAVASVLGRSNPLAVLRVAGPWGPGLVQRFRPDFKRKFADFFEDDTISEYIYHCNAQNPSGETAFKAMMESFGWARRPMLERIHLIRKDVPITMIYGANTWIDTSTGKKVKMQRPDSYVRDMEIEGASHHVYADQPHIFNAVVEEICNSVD

The entries are a selection whose mix differs from that of the whole data set. Activity calls are given as the source filed them.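 Rule for the calls: active = inhibition exceeding the mean over every tested compound plus 3 SD (cut at about 30% in these data); inactive = the rest.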

This assay addresses (Lyso)-N-acylphosphatidylethanolamine lipase (Mus musculus) (UniProt Q8VD66). Nature of the assay: ABHD4 inhibitors, primary screen, biochemical, fluorescence polarization, mouse (AID 720543).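 Note: 0% = plate median of compound wells and 100% = S159A mutant with DMSO.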 The note with it: purified mABHD4, FP-Rh probe fluorescence polarization; at 8.92 µM; stronger effect = higher value. Summed up: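 Test system: mABHD4 protein; Read-out basis: % inhibition; Incubation: 45 min + 60 min at 25 °C; Repeats: single replicate; Technique: fluorescence polarization with parallel and perpendicular emission, 525/598 nm; Compound: 8.92 µM, single dose; Benchmarks: full inhibition S159A mutant plus DMSO, zero as sample-well median.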
Regarding `O=P1(N(CCCl)CCCl)NCCC(C(F)(F)F)O1` (stereo not drawn), the inhibition was inactive: 2.4%.

`CCOP(=O)(Nc1ccc(C)cn1)OCC`: the inhibition was inactive: 1.42%.

On to `CN(CCCl)Cc1cc(Cl)c(NC2=NCCN2)c(Cl)c1`, for which the inhibition was inactive: 0.96%.

For `CCOP(=O)(NC(=NC(C)c1ccccc1)NC(C)c1ccccc1)OCC` (stereo not drawn), the inhibition is inactive: -2.39%.

As to `CCC1=CC2Cc3nc4ccc(Cl)cc4c(N)c3C(C1)C2` (stereo not drawn), the inhibition was inactive: 8.48%.

Turning to `O=P1(Nc2ccccn2)COc2ccccc2OC1`, the inhibition is inactive: 0.51%.

With `CC1(CBr)Cn2c(nc3ccccc3c2=O)S1` (stereo not drawn), the inhibition was inactive: 5.36%.

`CN(C(=O)Cc1ccc(Cl)c(Cl)c1)C1CCCC[C@@H]1N1CCCC1` (stereo partly drawn): the inhibition is inactive: -1.41%.

With `CN(C(=O)Cc1ccc(Cl)c(Cl)c1)[C@@H]1CCCC[C@H]1N1CCCC1`, the inhibition is inactive: 0.16%.

`CC(C)/C=N\N=C(\N)N[N+](=O)[O-]`: the inhibition was inactive: 1.2%.

In the case of `COc1ccccc1CNC(=O)COC(=O)C(O)(c1ccccc1)c1ccccc1`, the inhibition is inactive: -2.69%.

Turning to `Cc1cccc(OCC(=O)OC2CN3CCC2CC3)c1` (stereo not drawn), the inhibition was inactive: 0.22%.

Consider `O=[As](O)(c1cccc(O)c1)c1cccc(O)c1`, for which the inhibition is inactive: -2.7%.

`CS(=O)(=O)c1ccc(Cl)c(NC(=O)COC(=O)C(O)(c2ccccc2)c2ccccc2)c1`: the inhibition is inactive: -8.29%.

In the case of `O=[As](O)(O)c1cccnc1`, the inhibition was inactive: 6.78%.

As for `COc1cc(C(=O)NCC2(N3CCOCC3)CCCCC2)cc(Cl)c1OC(C)C`, the inhibition is inactive: -8.88%.

As for `O=C(OC1CN2CCC1CC2)c1ccc(Cl)cc1` (stereo not drawn), the inhibition was inactive: -16.2%.

For the molecule `CCOP(=O)(Nc1cccc2ccccc12)OCC`, the inhibition is inactive: -1.7%.

Regarding `COc1cc(C2NCCC3(OCCO3)C2(C)C)cc(OC)c1OC` (stereo not drawn), the inhibition is inactive: -1%.

Regarding `CCCOP(=S)(Nc1nc(N)cc(=O)[nH]1)OCCC`, the inhibition is inactive: 2.06%.

In the case of `Nc1cccc2c([As](=O)(O)O)cccc12`, the inhibition is active: 44.2%.

As to `Cc1ccc(NCCc2c([N+](=O)[O-])cc([N+](=O)[O-])cc2[N+](=O)[O-])cc1`, the inhibition was active: 44.1%.

As for `O=C(O)COc1ccc([As](=O)(O)O)cc1[N+](=O)[O-]`, the inhibition is inactive: 2.51%.

In the case of `Nc1ccccc1[As](=O)(O)c1ccccc1`, the inhibition was inactive: 3.66%.

`O=P(Nc1nccs1)(Oc1ccccc1)Oc1ccccc1`: the inhibition was inactive: -2.2%.

For the molecule `CCOP1(=S)c2c(C)nn(CCC#N)c2N=C(c2ccccc2F)N1C` (stereo not drawn), the inhibition was inactive: 0.29%.

In the case of `CN(C(=O)Cc1ccc(Cl)c(Cl)c1)[C@H]1CC[C@@]2(CCCO2)C[C@@H]1N1CCCC1`, the inhibition was inactive: 0.78%.

As for `O=[N+]([O-])c1ccc2c(c1)nnn2O`, the inhibition was inactive: 0.91%.

As to `CN(C)C(=O)c1cc([N+](=O)[O-])cc2c1-c1c(cc([N+](=O)[O-])cc1[N+](=O)[O-])C2=O`, the inhibition is inactive: 1.3%.

Turning to `CN(C(=O)Cc1ccccc1)[C@@H]1CC[C@]2(CCCO2)C[C@H]1N1CCCC1`, the inhibition was inactive: -3.66%.

Take `CCOP1(=S)c2c(C)nn(CCC#N)c2N=C(c2ccc(F)cc2)N1C` (stereo not drawn): the inhibition is inactive: -0.42%.

`N#CCCN(C(=O)COC(=O)C(O)(c1ccccc1)c1ccccc1)c1ccc(F)cc1`: the inhibition was inactive: 5.33%.

With `NC(=O)Nc1ccc([As](=O)(O)O)cc1`, the inhibition was inactive: 8.54%.

As for `Cc1ccc2nc3c(c(C)c2c1)CC(C(Cl)Cl)S3` (stereo not drawn), the inhibition is inactive: 1.19%.

For the molecule `Cc1ccc(OP(=O)(Nc2ccc([N+](=O)[O-])cn2)Oc2ccc(C)cc2)cc1`, the inhibition is inactive: 2.97%.

With `[N-]=[N+]=NC1CCCCC1NC(=O)c1cc([N+](=O)[O-])cc([N+](=O)[O-])c1` (stereo not drawn), the inhibition was inactive: -3.08%.

Consider `O=[N+]([O-])c1ccc(-c2cc([N+](=O)[O-])c(O)c([N+](=O)[O-])c2)cc1`, for which the inhibition was inactive: -34.2%.

For `COc1cc(C(=O)NCC2(N3CCOCC3)CCCCC2)ccc1OCC(C)C`, the inhibition was inactive: -3.38%.

In the case of `O=[As](O)(c1ccc(O)cc1)c1ccccc1O`, the inhibition was inactive: 3.53%.

`C[As](=O)(O)c1cccc(C(=O)O)c1`: the inhibition was inactive: -3.18%.

For `CC(C)NC(=O)NP(=O)(Oc1ccccc1)Oc1ccccc1`, the inhibition was inactive: -1.85%.

For `O=C(OC1CN2CCC1CC2)c1cccc2[nH]cnc12` (stereo not drawn), the inhibition is inactive: -9.89%.

For the molecule `CCN(CC)C(=S)SC(NC=O)C(Cl)(Cl)Cl` (stereo not drawn), the inhibition was inactive: 2.22%.

In the case of `COC(=O)C1(C)COP(=O)(N2CCCCCC2)OC1` (stereo not drawn), the inhibition was inactive: -1.68%.

As for `CC(C)c1ccc(OP(=O)(Nc2ccccn2)Oc2ccccc2F)cc1` (stereo not drawn), the inhibition was inactive: 2.42%.

For `ClCCSc1nnc(-c2cccnc2)o1`, the inhibition is inactive: 1.71%.

In the case of `COc1cc(I)ccc1[As](=O)(O)O`, the inhibition is inactive: -1.38%.

Regarding `COc1ccc2nc(NP(=O)(c3ccccc3)c3ccccc3)sc2c1`, the inhibition is inactive: -1.53%.

As for `O=P1(N(CCCl)CCCl)OCCCN1CCCl` (stereo not drawn), the inhibition was inactive: 3.02%.

Consider `O=P1(N(CCCl)CCCl)Nc2ccccc2N1`, for which the inhibition is inactive: 7.04%.

Consider `Cc1cc(=O)[nH]c(N[N+](=O)[O-])n1`, for which the inhibition was inactive: 2.65%.

Regarding `O=C(OC1CN2CCC1CC2)C12CC3CC(CC(C3)C1)C2` (stereo not drawn), the inhibition is inactive: -6.61%.

Regarding `Cc1c2c(nc3ccccc13)SC(C(Cl)Cl)C2` (stereo not drawn), the inhibition is inactive: -7.93%.

Consider `COc1ccc(N/C(=N/P(=O)(N2CCOCC2)N2CCOCC2)N2CCOCC2)cc1`, for which the inhibition is inactive: -3.33%.

Turning to `O=[N+]([O-])c1cc(Oc2ccc([N+](=O)[O-])cc2C(F)(F)F)cc([N+](=O)[O-])c1`, the inhibition was inactive: -2.01%.

On to `O=C(Nc1ccncc1[N+](=O)[O-])c1ccc([N+](=O)[O-])cc1[N+](=O)[O-]`, for which the inhibition was inactive: 6.51%.

Consider `O=C(COc1ccccc1)OC1CN2CCC1CC2` (stereo not drawn), for which the inhibition was inactive: 5.56%.

On to `O=C(O)C(=O)c1ccc(N(CCCl)CCCl)cc1`, for which the inhibition is inactive: 10.9%.

On to `COC(=O)C1(C)COP(=O)(N2CCCC2)OC1` (stereo not drawn), for which the inhibition was inactive: -3.18%.

For the molecule `COP1(=S)c2c(C)nn(CCC#N)c2N=C(c2ccc(F)cc2)N1C` (stereo not drawn), the inhibition was inactive: -0.77%.

On to `CCC(C)N(CC(C)C)C(=S)SC(NC(C)=O)C(Cl)(Cl)Cl` (stereo not drawn), for which the inhibition was inactive: 1.59%.

Regarding `CCOC(=O)c1ccc(NC(=O)C(C)(CCl)SC)cc1` (stereo not drawn), the inhibition is inactive: 2.16%.

As to `O=C(OC1CN2CCC1CC2)c1cccc([N+](=O)[O-])c1` (stereo not drawn), the inhibition was inactive: -0.07%.

Turning to `Cc1cc(SC(NC(=O)c2ccccc2)C(Cl)(Cl)Cl)nc(C(C)C)n1` (stereo not drawn), the inhibition is inactive: -1.02%.

For `CCCCOc1ccc(C(=O)NCC2(N3CCCCC3)CCCCC2)cc1OC`, the inhibition was inactive: -2.12%.

With `COP(=O)(OC)N1CC1c1ccccc1` (stereo not drawn), the inhibition was inactive: 1.63%.

With `CC1CCNP(=O)(N(CCCl)CCCl)O1` (stereo not drawn), the inhibition is inactive: -12.2%.

`O=C(O)C(O)c1ccc(N(CCCl)CCCl)cc1` (stereo not drawn): the inhibition was inactive: 0.42%.

Take `CCOC(=O)Nc1ccc([As](=O)(O)O)c(O)c1`: the inhibition was inactive: 11.1%.

Regarding `O=[N+]([O-])c1ccc(Nc2ccc(Oc3ccc([N+](=O)[O-])cc3[N+](=O)[O-])cc2)c([N+](=O)[O-])c1`, the inhibition was inactive: 3.62%.

In the case of `Cc1cc(SC(NC=O)C(Cl)(Cl)Cl)ncn1` (stereo not drawn), the inhibition was inactive: 6.96%.

Turning to `O=P(Nc1ccccn1)(c1cccc2ccccc12)c1cccc2ccccc12`, the inhibition is inactive: -3.43%.

As for `CCOC(=O)Nc1cccc([As](=O)(O)O)c1`, the inhibition was inactive: 5.25%.

What is called inhibition is the relative decrease from the control value, in per cent.
